The target of the assay is T1, human RIOK2 protein (Homo sapiens, UniProt Q9BVS4).
T1 construct: glutathione S-transferase is fused to N-terminal of a full-length human RIOK2 protein; GST (glutathione S-transferase) (N); purchased CarnaBio, Inc; host or cells: baculovirus-Sf21 cell expression system
As to the kind of experiment: RIOK2 autophosphorylation ELISA (Test Example 4). The note with it: 30° C. for 1 hour. In kind it is biochemical. How it is done:
A protein in which glutathione S-transferase is fused to N-terminal of a full-length human RIOK2 protein was used as a recombinant human RIOK2 protein. The protein was prepared using a baculovirus-Sf21 cell expression system from CarnaBio, Inc. A kinase reaction solution was prepared by mixing 25 μg/mL of the recombinant human RIOK2 protein and 100 μM of ATP in 20 μl of kinase reaction buffer (50 mM Tris-HCl, 10 mM MgCl2, 10 mM MnCl2, 1 mM DTT, 0.01% Brij, 1× PhosSTOP (manufactured by Roche Applied Science)), and was incubated at a temperature of 30° C. for 1 hour. After adding 30 μl of 40 mM EDTA solution to this kinase reaction solution, the kinase reaction solution was transferred to a MaxiSorp 96 well plate (manufactured by Nunc). Thereafter, phosphorylated human RIOK2 protein was allowed to adsorb onto the wells by leaving the plate in a refrigerator overnight.
The following day, the supernatant was removed, and the wells were washed three times with ELISA buffer (20 mM Tris-HCl, 150 mM NaCl, 0.2% Tween-20, 0.1% BSA). Thereafter, 100 μl of Blocking-One P (product name; manufactured by Nacalai Tesque, Inc.) was applied to the wells, and a blocking treatment was performed for 1 hour at room temperature. […] An absorptiometric level of 450 nm was measured in each well using ARVO SX (manufactured by Wallac).
(In general: ELISA stands for enzyme-linked immunosorbent assay.)

The chains behind the UniProt entries cited, without tags or fusion partners. Where a name states a change or a piece, a line headed by the entry shows the natural chain unless it says otherwise.
UniProt Q9BVS4: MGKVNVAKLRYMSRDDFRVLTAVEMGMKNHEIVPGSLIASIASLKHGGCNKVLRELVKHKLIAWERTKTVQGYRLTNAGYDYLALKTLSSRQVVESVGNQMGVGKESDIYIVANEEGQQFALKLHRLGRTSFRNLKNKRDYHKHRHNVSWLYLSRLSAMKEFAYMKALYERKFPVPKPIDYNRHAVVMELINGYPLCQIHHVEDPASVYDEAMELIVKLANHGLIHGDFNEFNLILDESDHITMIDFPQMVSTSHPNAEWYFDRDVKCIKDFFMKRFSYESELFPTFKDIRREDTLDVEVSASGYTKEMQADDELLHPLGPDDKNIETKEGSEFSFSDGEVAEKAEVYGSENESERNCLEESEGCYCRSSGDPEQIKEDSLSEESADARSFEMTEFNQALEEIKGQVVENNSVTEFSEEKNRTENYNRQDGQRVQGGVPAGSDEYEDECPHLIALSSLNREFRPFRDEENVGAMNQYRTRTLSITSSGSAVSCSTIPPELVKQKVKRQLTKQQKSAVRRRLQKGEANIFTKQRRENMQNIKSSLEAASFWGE

Turning to `CN[C@@H]1C[C@H]2O[C@@](C)([C@@H]1OC)n1c3ccccc3c3c4c(c5c6ccccc6n2c5c31)C(=O)NC4` [staurosporine, reference compound], the RIOK2 kinase activity result was “suppressed depending on the concentration of staurosporine”.
